Among the data in ChEMBL document CHEMBL4261537, “Synthesis and pharmacological evaluation of multi-functional homoisoflavonoid derivatives as potent inhibitors of monoamine oxidase B and cholinesterase for the treatment of Alzheimer's disease” (Medchemcomm, 2017) are IC50 values, retold here.

The chains behind the UniProt entries cited, without tags or fusion partners.
UniProt P21397, whole entry: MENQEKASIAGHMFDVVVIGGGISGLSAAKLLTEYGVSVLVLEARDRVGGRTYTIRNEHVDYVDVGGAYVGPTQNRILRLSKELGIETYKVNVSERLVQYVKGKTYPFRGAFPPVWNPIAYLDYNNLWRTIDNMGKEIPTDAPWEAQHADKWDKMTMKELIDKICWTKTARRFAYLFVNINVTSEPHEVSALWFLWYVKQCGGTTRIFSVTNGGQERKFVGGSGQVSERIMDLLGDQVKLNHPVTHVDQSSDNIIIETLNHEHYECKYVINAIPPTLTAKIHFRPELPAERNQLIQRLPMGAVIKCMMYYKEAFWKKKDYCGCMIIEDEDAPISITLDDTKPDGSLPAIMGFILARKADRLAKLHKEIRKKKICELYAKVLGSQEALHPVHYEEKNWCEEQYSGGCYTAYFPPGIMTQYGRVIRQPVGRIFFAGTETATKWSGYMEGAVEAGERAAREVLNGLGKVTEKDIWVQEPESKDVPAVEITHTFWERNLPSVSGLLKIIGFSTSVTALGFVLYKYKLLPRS

Structures are written as SMILES. pIC50: −log10 of the molar value.

In the assay the target is Amine oxidase [flavin-containing] A (Homo sapiens, UniProt P21397). As to the kind of experiment: Inhibition of recombinant human MAO-A assessed as reduction in H2O2 production using p-tyramine as substrate preincubated for 15 mins followed by substrate addition by Amplex red reagent based fluorescence assay. The gist of the method: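 Human MAO-A, adjusted to give the same control reaction velocity, preincubated 15 min at 37°C with compound in sodium phosphate buffer; 200 μM Amplex Red reagent with 1 U/mL horseradish peroxidase and 1 mM p-tyramine then added. Resorufin fluorescence (ex 545, em 590 nm) read at 37°C, enzyme-free background subtracted; triplicate.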

On to `C#CCN(C)Cc1ccccc1` [PARGYLINE], for which the pIC50 is 5.96.

By pIC50 is commonly meant −log10 of the IC50, conventionally taken in molar units.
